We go through one substance from PMC8477500.

Amino acid sequences for entries named in this document (tags omitted). A change or cut given only in a name is not applied to a line headed by its entry. Residues count along the entry.
UniProt P56485: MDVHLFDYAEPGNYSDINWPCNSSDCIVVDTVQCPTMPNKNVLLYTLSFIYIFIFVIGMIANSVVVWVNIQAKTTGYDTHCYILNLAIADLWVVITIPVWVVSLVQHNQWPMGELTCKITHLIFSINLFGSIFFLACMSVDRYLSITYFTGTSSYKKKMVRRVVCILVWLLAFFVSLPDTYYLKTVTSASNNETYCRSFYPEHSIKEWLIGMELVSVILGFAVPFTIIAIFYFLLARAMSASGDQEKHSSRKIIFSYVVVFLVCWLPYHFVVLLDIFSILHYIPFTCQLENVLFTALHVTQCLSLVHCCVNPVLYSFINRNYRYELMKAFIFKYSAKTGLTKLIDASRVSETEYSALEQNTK
UniProt P48061, 22-89: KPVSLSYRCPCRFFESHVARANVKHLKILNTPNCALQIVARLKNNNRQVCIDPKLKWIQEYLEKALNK

The target of assay [1] is mouse ACKR3 fused at its C-tail to the yellow fluorescent protein Venus (ACKR3-Venus) (mouse) (UniProt P56485).
Assay [2] deals with mouse ACKR3 (atypical chemokine receptor 3), untagged (mouse) (UniProt P56485).
Assay [3] addresses mouse ACKR3 fused at its C-tail to the yellow fluorescent protein Venus (ACKR3-Venus) (mouse) (UniProt P56485). This is another data set of the same source.

“SDF-1α/CXCL12 (from UniProt P48061-2 22-89) (ligand)” gave a βarrestin2-RlucII recruitment to the plasma membrane (rGFP-CAAX, ebBRET) in HEK-293 cells with ACKR3-Venus, 10 min, increasing concentrations of CXCL12; EC50 in assay [1] of 2.2 nM. In addition, the βarrestin2-RlucII recruitment to the plasma membrane (rGFP-CAAX, ebBRET) in HEK-293 cells with untagged ACKR3, 10 min, increasing concentrations of CXCL12; EC50 in assay [2] amounted to 1.9 nM. The βarrestin2-RlucII recruitment to ACKR3-Venus (BRET1) in HEK-293 cells, 10 min, increasing concentrations of CXCL12; LogEC50 (log (unit of concentration not given)) in assay [3] is -9.15.
